Target: recombinant GST-S6

B1: T7-tagged S6K1 Iso-1 K123A (kinase dead) (protein)
chain: MRRRRRRDGFYPAPDFRDREAEDMAGVFDIDLDQPEDAGSEDELEEGGQLNESMDHGGVGPYELGMEHCEKFEISETSVNRGPEKIRPECFELLRVLGKGGYGKVFQVRKVTGANTGKIFAMAVLKKAMIVRNAKDTAHTKAERNILEEVKHPFIVDLIYAFQTGGKLYLILEYLSGGELFMQLEREGIFMEDTACFYLAEISMALGHLHQKGIIYRDLKPENIMLNHQGHVKLTDFGLCKESIHDGTVTHTFCGTIEYMAPEILMRSGHNRAVDWWSLGALMYDMLTGAPPFTGENRKKTIDKILKCKLNLPPYLTQEARDLLKKLLKRNAASRLGAGPGDAGEVQAHPFFRHINWEELLARKVEPPFKPLLQSEEDVSQFDSKFTRQTPVDSPDDSTLSESANQVFLGFTYVAPSVLESVKEKFSFEPKIRSPRRFIGSPRTPVSPVKFSPGDFWGRGASASTANPQTPVEYPMETSGIEQMDVTMSGEASAPLPIRQPNSGPYKKQAFPMISKRPEHLRMNL
  in vitro kinase assay (phospho-S6 S240-244 blot): have no kinase activity

Reference: patent US20150141489
